Assay results published in patent publication US8552176B2 (priority 2010, dated 2013).

Columns and labels:
Assay in all cases: Cell proliferation assay (GI50 cytotoxicity)
Assay type in all cases: cell-based, human
HCT-15 = conditions: read-out: GI50 HCT-15 colorectal, 7 d incubation
MCF7 = conditions: read-out: GI50 MCF7 breast, 7 d incubation
H1299 = conditions: read-out: GI50 H1299 lung (−p53), 7 d incubation
SKOV3 = conditions: read-out: GI50 SKOV3 ovary, 7 d incubation
DU-145 = conditions: read-out: GI50 DU-145 prostate, 7 d incubation
A549 = conditions: read-out: GI50 A549 lung (+p53), 7 d incubation
HT29 = conditions: read-out: GI50 HT29 colorectal, 7 d incubation
NCI-H460 = conditions: read-out: GI50 NCI-H460 lung, 7 d incubation
SF-268 = conditions: read-out: GI50 SF-268 CNS, 7 d incubation
Hep3b = conditions: read-out: GI50 Hep3b liver, 7 d incubation

| SMILES | GI50 (HCT-15) [nM] | GI50 (MCF7) [nM] | GI50 (H1299) [nM] | GI50 (SKOV3) [nM] | GI50 (DU-145) [nM] | GI50 (A549) [nM] | GI50 (HT29) [nM] | GI50 (NCI-H460) [nM] | GI50 (SF-268) [nM] | GI50 (Hep3b) [nM] |
| --- | --- | --- | --- | --- | --- | --- | --- | --- | --- | --- |
| CONCCCCc1ccc(N(CCCl)CCCl)cc1 | 1100 | 1900 | 1800 | 2900 | 3200 | 3200 | 2300 | 4400 | 1700 | 2300 |
| NNC(=O)CCCc1ccc(N(CCCl)CCCl)cc1 | 3000 | 2300 | 1300 | 4300 | 4800 | 4300 | 4200 | 6900 | 1500 | 3100 |
